Assay: log P by HPLC (EEC Directive 79/831 Annex V.A8)
Assay type: physicochemical
[1] = [c] LC-MS, neutral range, pH 7.8, 0.001 molar aqueous ammonium hydrogencarbonate and acetonitrile

| SMILES | log P [1] | log P ([b] LC-MS, acidic range, pH 2.7, 0.1% aqueous formic acid and acetonitrile) |
| --- | --- | --- |
| Cc1cc(C(F)(F)F)nn1CC(=O)N1CCC(c2cccc(C(=O)Nc3cccc4ccccc34)n2)CC1 [Example 29] | 3.91 |  |
| Cc1cc(C(F)(F)F)nn1CC(=O)N1CCN(c2cccc(C(=O)OC3CCCCC3)n2)CC1 [Example 69] | 3.98 |  |
| C=CCCCCOC(=O)c1cccc(N2CCN(C(=O)Cn3nc(C(F)(F)F)cc3C)CC2)n1 [Example 71] |  | 3.92 |

— patent US8604040B2 (priority 2010, dated 2013)
